A word on the Ki: it is the equilibrium dissociation constant of an inhibitor or competing ligand from its target. A higher Ki goes with a looser hold on the target.

Chains of the proteins cited; added tags and fusions are not shown.
UniProt P61168, whole entry: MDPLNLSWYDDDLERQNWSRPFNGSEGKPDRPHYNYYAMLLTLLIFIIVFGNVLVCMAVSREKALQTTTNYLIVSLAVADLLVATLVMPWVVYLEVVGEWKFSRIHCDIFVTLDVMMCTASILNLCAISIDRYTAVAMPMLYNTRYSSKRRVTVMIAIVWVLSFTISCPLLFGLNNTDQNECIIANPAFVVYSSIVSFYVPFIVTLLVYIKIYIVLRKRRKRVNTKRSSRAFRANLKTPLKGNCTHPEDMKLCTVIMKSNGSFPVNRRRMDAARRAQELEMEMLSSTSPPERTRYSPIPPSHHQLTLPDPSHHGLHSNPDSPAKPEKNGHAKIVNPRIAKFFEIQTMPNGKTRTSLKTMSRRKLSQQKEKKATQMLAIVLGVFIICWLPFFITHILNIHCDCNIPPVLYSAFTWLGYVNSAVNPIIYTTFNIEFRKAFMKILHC

This test concerns the target D(2) dopamine receptor (Mus musculus, UniProt P61168).

With `CC(C)(C)[C@]1(O)CCN2C[C@H]3c4ccccc4CCc4cccc(c43)[C@@H]2C1`, the Ki was 210 pM.

The values above are taken from BindingDB's records for PubMed 2017157 (Medical Research Service, 1991).
